Hits are enriched below; roughly 2.8% of the tested compounds scored in any of these assays.
esBAF inh – Bmi1 luciferase reporter increase in mESCs, primary screen, esBAF inhibitor project, mouse ES cells, Bmi1 luciferase knock-in, single point; 24 h; 100% = twice the neutral-well signal; reporter increase, % at 12.5 µM; 350,000 compounds, 2% hits; in the data active = activation above about 40%; inconclusive = no clear call, values can overlap the other calls;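 also: a rise in the Bmi1 reporter signal indicates esBAF inhibition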
PGC1a acetyl inh – inhibitors of PGC1a acetylation signal, primary screen, cell-based, U2OS, AlphaScreen, inhibitor mode | AlphaScreen anti-acetyl-lysine; with virally co-expressed GCN5 acetyltransferase | 350,000 compounds, 0.17% hits | inhibition, % at 15.6 µM | AID 651687, 2012;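 active = every replicate shows inhibition of at least 40%; inconclusive = mean inhibition at least 40% but some replicate below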
PglD inh – C. jejuni PglD acetyltransferase inhibitors, primary screen, biochemical, DTNB colorimetric, single point; purified PglD enzyme, DTNB colorimetric CoA detection; 360,000 compounds, 0.098% hits; AID 602405, 2012; inhibition, % at 12.5 µM; in the data active = inhibition above about 16%, passing the limit was not always enough; inconclusive = no clear call, values can overlap the other calls
E-selectin induc – E-selectin induction in HUVECs, primary screen, imaging, HUVEC, immunofluorescence imaging, single point; normalized: neutral wells 0, TNF-alpha wells 100; 260,000 compounds, 0.37% hits; activation, % at 7.58 µM; P16581;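 active = mean E-selectin-positive cell signal at least 10% of the positive control, reached in at least 60% of replicates, without over 20% cell loss; inconclusive = no rule given, readout overlaps actives, possibly toxicity-flagged; inactive = the rest, including those meeting only one limit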
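assay system = HUVEC, human umbilical vein endothelial cells | input = 3,000 HUVEC seeded per well | medium = EGM-2 growth medium on 0.1% gelatin-coated wells | dosing = one compound dose added by pin transfer | signal = immunofluorescence imaging | read-out basis = % PE-positive cells | control set = TNF-alpha, DMSO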
C2C12 statin – suppressors of statin myotoxicity in C2C12 myotubes, primary screen, cell-based, single point, plate reader. C2C12 myotubes + simvastatin, ATP luminescence, 48 h; scaled: DMSO 0, geranylgeraniol control 100. rescue of ATP level, % at 7.49 µM. 330,000 compounds, 0.78% hits;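 active = mean ATP rescue above about 67%, or every replicate alone reaching that limit, limit read from the data, passing the limit was not always enough; inconclusive = no clear call, values can overlap the other calls; inactive = mean under the limit and some replicate under it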;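 also: myotubes were challenged with 10 µM simvastatin during compound exposure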
Yeast UUG start – alters start codon recognition fidelity in yeast | S. cerevisiae UUG-firefly luciferase reporter, luminescence/redox ratio | activity score, % at 18.7 µM | 350,000 compounds, 0.13% hits | AID 602363;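 active = replicate mean at a twofold rise or more, about +100% in these data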;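 note: firefly luciferase made from a UUG start codon reports start codon fidelity; reporter light over untreated wells divided by growth signal over untreated wells; some hits fall short of that in this replicate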
Each line names hits and unclear results; the compound was inactive in the other large screens.

CCOc1ccc2nc(SCc3ccc(OC)cc3)sc2c1	none (no result: esBAF inh, PglD inh, C2C12 statin, Yeast UUG start)
COc1ccc(S(=O)(=O)Nc2ccc3c(c2)C(=O)N([C@@H](C)CO)C[C@@H](C)[C@@H](CN(C)Cc2ccc(C(F)(F)F)cc2)OCCCC[C@@H](C)O3)cc1	none (no result: C2C12 statin)
C[C@H](CO)N1C[C@H](C)[C@H](CN(C)S(=O)(=O)c2cccs2)Oc2c(NC(=O)c3ccncc3)cccc2C1=O	none
CC(=O)Nc1ccc2c(c1)Cc1ccc(Cl)cc1-2	esBAF inh 46
CCOc1ccccc1NC(=O)Nc1ccc2c(c1)CCC2	esBAF inh 48 (no result: PGC1a acetyl inh)
COC(=O)c1cc(NC(=O)c2c(Cl)cnn2C)cc(C(=O)OC)c1	none (no result: esBAF inh, E-selectin induc, C2C12 statin)
Cc1ccc(NC(=O)Nc2ccc3c(c2)CCC3)cc1C	none (no result: esBAF inh, C2C12 statin)
Cc1cc(C)n2nc(C(=O)Nc3ccc4c(c3)CCC4)nc2n1	esBAF inh 56
CCOc1ccccc1NC(=O)Nc1cccc(NC(C)=O)c1	none
COc1ccc(NC(=O)Nc2ccc3c(c2)CCC3)cc1	esBAF inh 52 (no result: PGC1a acetyl inh)
Cn1ncc(Cl)c1C(=O)Nc1ccc2c(c1)CCC2	esBAF inh 52 (no result: PGC1a acetyl inh)
C[C@H](CO)N1C[C@H](C)[C@@H](CN(C)C(=O)Cc2cccnc2)Oc2ncc(C#Cc3ccccc3F)cc2C1=O	none
C[C@@H]1CCCCO[C@@H](CN(C)C(=O)CCC(F)(F)F)[C@@H](C)CN([C@@H](C)CO)C(=O)c2cc(NS(C)(=O)=O)ccc2O1	none
O=C(Nc1ccc2c(c1)CCC2)Nc1ccccc1Cl	esBAF inh 79 (no result: PGC1a acetyl inh, E-selectin induc)
CN1C(=O)c2cc(NC(=O)c3cnccn3)ccc2OC[C@@H]2O[C@H](CC(=O)NC3CCC3)CC[C@H]21	none
COc1ccc(C(=O)c2oc3ccc(OC)cc3c2N)cc1	esBAF inh 86
COC(=O)c1oc2ccc(OC)cc2c1N	none (no result: E-selectin induc)
CO[C@H]1CN(C)C(=O)c2ccc(NC(=O)CC(F)(F)F)cc2OC[C@@H](C)N(CC2CC2)C[C@H]1C	none (no result: esBAF inh, PglD inh, C2C12 statin, Yeast UUG start)
O=C(C[C@@H]1C[C@@H]2c3cc(NC(=O)Nc4ccc(C(F)(F)F)cc4)ccc3O[C@@H]2[C@@H](CO)O1)NCc1cccnc1	none (no result: Yeast UUG start)
O=c1cc(CN2CCN(Cc3ccccc3)CC2)c2cc3c(cc2o1)CCC3	C2C12 statin 115 (no result: E-selectin induc)
O=C(CCN1CCCCC1)NCC[C@H]1CC[C@H](NC(=O)Cc2cccnc2)[C@H](CO)O1	Yeast UUG start 107
O=C(CCN1CCCCC1)NCC[C@H]1CC[C@H](NC(=O)Cc2cccnc2)[C@@H](CO)O1	none
O=C(Cc1ccncc1)NCC[C@H]1CC[C@H](NC(=O)C2CCCC2)[C@H](CO)O1	Yeast UUG start 196
O=C(Cc1ccncc1)NCC[C@H]1CC[C@@H](NC(=O)C2CC2)[C@H](CO)O1	PGC1a acetyl inh 62
O=C(Cc1ccncc1)NCC[C@@H]1CC[C@H](NC(=O)C2CCCC2)[C@@H](CO)O1	none
CO[C@@H]1CN(C)C(=O)c2ccc(NC(=O)Nc3cccc(F)c3)cc2OC[C@@H](C)N(C(=O)C2CC2)C[C@@H]1C	none (no result: PglD inh, Yeast UUG start)
CO[C@H]1CC[C@@H]2CCOc3c(C#N)cccc3C(=O)N(C)C[C@@H](C)C(=O)N(C)C[C@@H]1O2	none (no result: Yeast UUG start)
CSc1nc(N2CCOCC2)c2c3c(sc2n1)CCC3	C2C12 statin 98 (no result: PglD inh, E-selectin induc)
OC(c1ccc(F)cc1)c1ncc(-c2ccc3ccccc3c2)[nH]1 (configuration not stated)	esBAF inh 76
Cc1ccc(C(O)c2ncc(-c3ccc4ccccc4c3)[nH]2)cc1 (configuration not stated)	esBAF inh 53
COc1ccc(C(O)c2ncc(-c3ccc4ccccc4c3)[nH]2)cc1 (configuration not stated)	none
OC(c1ccc(Cl)cc1)c1ncc(-c2ccccc2F)[nH]1 (configuration not stated)	esBAF inh 51 (no result: PGC1a acetyl inh)
Cc1[nH]n(C(N)=S)c(=O)c1N=Nc1ccc(S(=O)(=O)N2CCCC2)cc1	esBAF inh 53 (no result: E-selectin induc)
Cc1ccc(N=Nc2c(C)[nH]n(C(N)=S)c2=O)cc1	esBAF inh 57 (no result: E-selectin induc)
Cc1nc2ccccn2c1-c1csc(NCc2ccco2)n1	C2C12 statin 94 (no result: E-selectin induc)
Cc1nc(NC(=O)c2ccccc2)sc1-c1csc(NCc2ccco2)n1	none (no result: E-selectin induc)
Cc1nc(C)c(-c2csc(NCc3ccco3)n2)s1	esBAF inh 62 (no result: E-selectin induc)
Cc1ccc(C)c(NC(=S)Nc2cccc3cnccc23)c1	PGC1a acetyl inh inconclusive (no result: esBAF inh, PglD inh, C2C12 statin, Yeast UUG start)
Cc1ccc(NC(=S)Nc2cccc3cnccc23)cc1C	esBAF inh 46 (no result: E-selectin induc)
Cc1ccc(NC(=S)Nc2cccc3cnccc23)cc1	esBAF inh 68 (no result: PGC1a acetyl inh, E-selectin induc)
O=C(Nc1ccccc1F)N[C@@H]1CC[C@@H](CCNC(=O)C2CCC2)O[C@@H]1CO	none
Cc1nn(Cc2ccccc2Cl)c2sc(C(=O)NCc3ccc4c(c3)OCO4)cc12	C2C12 statin 126 (no result: E-selectin induc)
CCC(CC)NC(=O)c1cc2c(C)nn(Cc3ccccc3Cl)c2s1	none (no result: PglD inh, E-selectin induc, Yeast UUG start)
COc1ccc(-n2nc(C(=O)NCC(=O)N3CCN(c4ccccc4)CC3)c3ccccc3c2=O)cc1OC	esBAF inh 45
COc1ccc(-n2nc(C(=O)NCC(=O)N3CCCC3)c3ccccc3c2=O)cc1Cl	esBAF inh 59 (no result: PGC1a acetyl inh)
COc1cc(OC)cc(-n2nc(C(=O)NCCCN3CCOCC3)c3ccccc3c2=O)c1	none (no result: E-selectin induc, C2C12 statin)
CCOC(=O)N1CCN(C(=O)CNC(=O)c2nn(-c3ccc(OC)c(Cl)c3)c(=O)c3ccccc23)CC1	none
COCCNC(=O)c1nn(-c2cc(OC)cc(OC)c2)c(=O)c2ccccc12	C2C12 statin 110 (no result: E-selectin induc)
O=C(N/N=C/c1ccc2cccnc2c1)c1nc2ccccc2c(=O)[nH]1	esBAF inh 46
CCCNC(=O)N[C@@H]1CC[C@@H](CC(=O)N2CCN(C)CC2)O[C@@H]1CO	none
O=C(COc1ncnc2cc(Cl)ccc12)c1ccc2c(c1)OCCO2	esBAF inh 59 (no result: E-selectin induc)
O=C(COc1ncnc2ccccc12)c1ccc2c(c1)OCCO2	C2C12 statin 72 (no result: PglD inh, E-selectin induc, Yeast UUG start)
Cc1ccc(C(=O)COc2ncnc3cc(Cl)ccc23)cc1	none
O=C(CSc1ncnc2ccccc12)c1ccc2c(c1)OCCO2	none (no result: esBAF inh, E-selectin induc, C2C12 statin)
C[C@H]1CN([C@@H](C)CO)C(=O)Cc2cc(NS(=O)(=O)c3cccs3)ccc2O[C@H]1CN(C)Cc1ccc(C(=O)Nc2ccccc2N)cc1	none (no result: esBAF inh, PglD inh, C2C12 statin, Yeast UUG start)
O=C(COC(=O)c1cccnc1Cl)c1ccccc1	esBAF inh 44 (no result: E-selectin induc)
N#CCc1ccc(OC(=O)c2cccnc2Cl)cc1	esBAF inh 60 (no result: PGC1a acetyl inh)
CN(C(=O)COC(=O)c1cccnc1Cl)C1CCCCC1	esBAF inh 56
CN(C(=O)COc1ccc(Cl)cc1Br)C1CCCCC1	esBAF inh 48

Screening data: PubChem BioAssay, Broad Institute
